# Values quoted from earlier work as cited in US20160193276A1 (Teva Pharmaceutical Industries, Ltd., priority 2012, published 2016).
# System: patients
substance,measurement,setting,value
"L-glutamic acid polymer with L-alanine, L-lysine, L-tyrosine, acetate (salt) [glatiramer acetate]",Proportion of patients reporting injection-site reactions at least once,"controlled studies, placebo injections 37%",70%
same,Safety data in clinical trials,injection,safe and well tolerated
same,Patients with Immediate Post-Injection Reaction (IPIR),vs. 13% on placebo,31%
